The list shows a part of the results, in another mix than the full data.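 For each line, cells grew in 96-well plates with the test compound present at a single concentration for 48 hours.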 Calls of active or inactive are those of the source. The calls were made as follows: active = growth percent below 10; inactive = the rest.
Columns and labels:
Assay in all cases: NCI-60 one-dose screen, 48 h (100 = growth as untreated, 0 = no growth, -100 = all killed)
Conditions in all cases: 10 µM unless noted
[1] = tested on: MOLT-4 leukemia
[2] = tested on: SR leukemia
[3] = tested on: RPMI-8226 leukemia
[4] = tested on: OVCAR-8 ovarian
[5] = tested on: OVCAR-5 ovarian
[6] = tested on: OVCAR-4 ovarian
[7] = tested on: SK-OV-3 ovarian
[8] = tested on: IGROV1 ovarian
[9] = tested on: OVCAR-3 ovarian
[10] = tested on: HS 578T breast
[11] = tested on: NCI/ADR-RES ovarian
[12] = tested on: T-47D breast
[13] = tested on: BT-549 breast
[14] = tested on: MDA-MB-435 melanoma
[15] = tested on: SW-620 colon
[16] = tested on: MCF7 breast
[17] = tested on: HCT-116 colon
[18] = tested on: HCC-2998 colon
[19] = tested on: KM12 colon

Measured: growth

O=C(c1ccccc1)C(NCCCl)c1ccccc1 (centres undefined)
inactive: [1] 111% | [2] 97.6% | [3] 101% | [4] 96.9% | [5] 99.8% | [6] 110% | [7] 114% | [8] 85% | [9] 102% | [10] 99.1% | [11] 100% | [12] 105% | [13] 89.5% | [14] 100% | [15] 100% | [16] 86.5% | [17] 82.3% | [18] 97% | [19] 99.1%

O=C1CSC(C(Cl)(Cl)Cl)N1c1ccc(Cl)cc1 (centres undefined)
inactive: [1] 101% | [2] 107% | [3] 94.6% | [4] 96% | [5] 100% | [6] 93.2% | [7] 106% | [8] 95.2% | [9] 111% | [10] 98.4% | [11] 99.8% | [12] 90.8% | [13] 101% | [14] 98.8% | [15] 103% | [16] 99.6% | [17] 91.5% | [18] 108% | [19] 95.5%

O=C(Oc1c(Cl)cc(Cl)cc1[N+](=O)[O-])c1cc([N+](=O)[O-])cc([N+](=O)[O-])c1
inactive: [1] 49.4% | [2] 96.2% | [3] 101% | [4] 95.9% | [5] 114% | [6] 97.6% | [7] 99.8% | [8] 110% | [9] 116% | [10] 85.2% | [11] 98% | [12] 101% | [13] 103% | [14] 98.3% | [15] 102% | [16] 111% | [17] 108% | [18] 105% | [19] 104%

O=[As](O)(c1cccc(O)c1)c1cccc(O)c1
inactive: [1] 113% | [2] 112% | [3] 80.5% | [4] 102% | [5] 89.5% | [6] 105% | [7] 103% | [8] 128% | [9] 121% | [10] 106% | [11] 92.8% | [12] 111% | [13] 110% | [14] 104% | [15] 103% | [16] 83.4% | [17] 92.7% | [18] 91.1% | [19] 107%

CCN(CCCl)CC1COc2ccccc2O1 (centres undefined)
inactive: [1] 101% | [2] 102% | [3] 97.9% | [4] 102% | [5] 99.6% | [6] 113% | [7] 109% | [8] 109% | [9] 116% | [10] 95.3% | [11] 104% | [12] 103% | [13] 104% | [14] 110% | [15] 98.1% | [16] 93.8% | [17] 106% | [18] 110% | [19] 103%

CCCCCCC(C)OP(O)OC(C)CCCCCC (centres undefined)
inactive: [1] 116% | [2] 98.2% | [3] 108% | [4] 106% | [5] 117% | [6] 105% | [7] 139% | [8] 98.7% | [9] 117% | [10] 108% | [11] 100% | [12] 94.5% | [13] 107% | [14] 108% | [15] 103% | [16] 96.1% | [17] 99.5% | [18] 102% | [19] 105%

CCN(CCCl)C(Cc1ccccc1)c1ccccc1 (centres undefined)
inactive: [1] 81.6% | [2] 85.7% | [3] 95.9% | [4] 98.5% | [5] 109% | [6] 106% | [7] 97.2% | [8] 96.1% | [9] 108% | [10] 92.3% | [11] 107% | [12] 88.7% | [13] 112% | [14] 105% | [15] 91.6% | [16] 98.9% | [17] 102% | [18] 103% | [19] 103%

CC1(C)NC(C)(C)C(Br)C(=O)C1Br (centres undefined)
inactive: [1] 97.8% | [2] 90.6% | [3] 109% | [4] 115% | [5] 109% | [6] 110% | [7] 100% | [8] 102% | [9] 110% | [10] 111% | [11] 109% | [12] 105% | [13] 109% | [14] 115% | [15] 112% | [16] 100% | [17] 99.1% | [18] 103% | [19] 113%

O=[N+]([O-])c1cc(Cl)c(O)c([N+](=O)[O-])c1
inactive: [1] 104% | [2] 101% | [3] 102% | [4] 89.5% | [5] 103% | [6] 104% | [7] 97.6% | [8] 109% | [9] 114% | [10] 98% | [11] 115% | [12] 94.5% | [13] 105% | [14] 108% | [15] 102% | [16] 103% | [17] 97.3% | [18] 113% | [19] 101%

ClCCNC(Cc1ccccc1)c1ccccc1 (centres undefined)
inactive: [1] 90.5% | [2] 89.8% | [3] 104% | [4] 96.6% | [5] 96.9% | [6] 100% | [7] 96.7% | [8] 99.9% | [9] 97.6% | [10] 98.2% | [11] 97.2% | [12] 75% | [13] 99.2% | [14] 100% | [15] 104% | [16] 81.7% | [17] 84.9% | [18] 97.1% | [19] 95.7%

CCN(CC)CCOC(=O)C(O)(c1cccc(OC)c1OC)c1cccc(OC)c1OC
inactive: [1] 113% | [2] 111% | [3] 99.3% | [4] 92.4% | [5] 109% | [6] 117% | [7] 98.5% | [8] 102% | [9] 104% | [10] 93.4% | [11] 97.8% | [12] 87.6% | [13] 105% | [14] 110% | [15] 95.5% | [16] 99% | [17] 95% | [18] 116% | [19] 103%

ClCCN(CCc1ccccc1)Cc1ccccc1
inactive: [1] 91.2% | [2] 91% | [3] 102% | [4] 99.7% | [5] 94% | [6] 113% | [7] 108% | [8] 105% | [9] 99.7% | [10] 103% | [11] 97.7% | [12] 85.6% | [13] 104% | [14] 107% | [15] 98.6% | [16] 101% | [17] 93.2% | [18] 103% | [19] 104%

C/C(N)=N\P(=O)(OCc1ccccc1)OCc1ccccc1
inactive: [1] 104% | [2] 102% | [3] 105% | [4] 95.9% | [5] 88.7% | [6] 100% | [7] 116% | [8] 102% | [9] 111% | [10] 101% | [11] 98.6% | [12] 115% | [13] 106% | [14] 104% | [15] 103% | [16] 98.7% | [17] 98.5% | [18] 107% | [19] 105%

CCOP(=O)(CCCBr)OCC
inactive: [1] 101% | [2] 108% | [3] 102% | [4] 101% | [5] 105% | [6] 102% | [7] 104% | [8] 113% | [9] 113% | [10] 101% | [11] 118% | [12] 101% | [13] 112% | [14] 105% | [15] 105% | [16] 91.8% | [17] 103% | [18] 107% | [19] 116%

CCOP(=O)(NC1CCCCC1)OCC
inactive: [1] 96% | [2] 91.6% | [3] 89.8% | [4] 104% | [5] 102% | [6] 118% | [7] 96.4% | [8] 106% | [9] 106% | [10] 98.3% | [11] 100% | [12] 101% | [13] 99.5% | [14] 108% | [15] 105% | [16] 99.3% | [17] 96.8% | [18] 102% | [19] 103%

[N-]=[N+]=NC(=O)c1cccc([N+](=O)[O-])c1
inactive: [1] 75.3% | [2] 84% | [3] 30.8% | [4] 63.6% | [5] 85.4% | [6] 66.1% | [7] 106% | [8] 87.9% | [9] 47.9% | [10] 105% | [11] 58.9% | [12] 45% | [13] 78.9% | [14] 91.9% | [15] 71.3% | [16] 62.5% | [17] 36.9% | [18] 86.4% | [19] 45.9%

Source: PubChem BioAssay (NCI)
